Test: Hemolytic activity
Conditions: albino, mouse, pH 7.4

CCn1c(=NN=c2sc3cc(S(=O)(=O)O)ccc3n2CC)sc2cc(S(=O)(=O)O)ccc21 [ABTS, 2,2′-azino-bis(3-ethylbenzothiazoline-6-sulfonic acid), reference compound]
hemolysis at 0.5 h, 1 mg/mL: 95.9%
